Measurements reported in patent US9682960B2 (priority 2013, dated 2017).
“And” between values parts separate entries of the source, which are not always exact repeats. Identical values can stand only once. Like-named read-outs stand apart in the source and are kept apart here.

System: castrated (CX) immature male rats bearing a DHT implant
Settings: 7 days; for CX + DHT Antagonistic activity % Inhibition Bulbo: bulbocavernosus muscles weight; for CX + DHT Antagonistic activity % Inhibition SV: seminal vesicles weight; for CX + DHT Antagonistic activity % Inhibition Prostate: ventral prostate weight

| Compound | CX + DHT Antagonistic activity % Inhibition Bulbo (0.5 mg/rat/po) | CX + DHT Antagonistic activity % Inhibition SV (0.5 mg/rat/po) | CX + DHT Antagonistic activity % Inhibition Prostate (0.5 mg/rat/po) | also measured |
| --- | --- | --- | --- | --- |
| Cc1c(N2C(=O)C(C)(C)N(CCCOc3ccc(-c4ccncc4)c(C#N)c3)C2=S)ccc(C#N)c1Cl [EM-8933] | 0% | 2% | 28% |  |
| CC1(C)C(=O)N(c2ccc(C#N)c(C(F)(F)F)c2)C(=O)N1c1ccc(-c2ccncc2)cc1 [EM-9340] | 89% | 90% | 58% |  |
| Cc1c(N2C(=O)C(C)(C)N(CCCOc3ccc(-c4ccncc4)cc3)C2=S)ccc(C#N)c1C(F)(F)F [EM-8691] | −115% | 14% | 21% |  |
| Cc1c(N2C(=O)C(C)(C)N(CCCOc3ccc(-c4ccncc4)c(F)c3)C2=S)ccc(C#N)c1Cl [EM-8796] | −132% | −119% | 23% |  |
| Cc1c(N2C(=O)C(C)(C)N(CCCOc3ccc4cccnc4c3)C2=S)ccc(C#N)c1Cl [EM-8730] | 0% | 0% | 0% |  |
| COc1cc(-c2ccncc2)ccc1OCCCN1C(=O)N(c2ccc(C#N)c(Cl)c2)C(=O)C1(C)C [EM-9261] | 85% | 88% | 57% |  |
| Cc1c(N2C(=O)C(C)(C)N(CCCOc3ccc(-c4ccncc4)cc3F)C2=S)ccc(C#N)c1C(F)(F)F [EM-8793] | −46% | −1% | 35% |  |
| CC1(C)C(=O)N(c2ccc(C#N)c(F)c2)C(=O)N1CCCOc1ccc(-c2cc[n+]([O-])cc2)cc1 [EM-9176] |  |  |  | CX + DHT Antagonistic activity % Inhibition Bulbo (0.1 mg/rat po): 17 (0.1 mg/rat) %; CX + DHT Antagonistic activity % Inhibition SV (0.1 mg/rat po): 51 (0.1 mg/rat) %; CX + DHT Antagonistic activity % Inhibition Prostate (0.1 mg/rat/po): 34 (0.1 mg/rat) % |
| CC1(C)C(=O)N(c2ccc(C#N)c(C(F)(F)F)c2)C(=S)N1CCCOc1ccc2ncncc2c1 [EM-9010] | 50% | 44% | 37% |  |
| Cc1c(N2C(=O)N(CCCOc3ccc(-c4cc[n+]([O-])cc4)c(F)c3)C(C)(C)C2=O)ccc(C#N)c1Cl [EM-9254] | −47% | 53% | 45% |  |
| CC1(C)C(=O)N(c2ccc(C#N)c(Cl)c2)C(=S)N1CCCOc1ccc(-c2cccnc2)cc1 [EM-9049] | 53% | 78% | 51% |  |
| CC1(C)C(=O)N(c2ccc(C#N)c(C(F)(F)F)c2)C(=S)N1CCCOc1ccc2cccnc2c1 [EM-8991] | 58% | 74% | 41% |  |
| CC1(C)C(=O)N(c2ccc(C#N)c(C(F)(F)F)c2)C(=S)N1CCCOc1ccc(-c2cc[n+]([O-])cc2)cc1 [EM-8929] | 43% | 88% | 59% |  |
| Cc1c(N2C(=O)C(C)(C)N(CCCOc3ccc(-c4ccncc4F)cc3)C2=S)ccc(C#N)c1C(F)(F)F [EM-8974] | −96% | 11% | 34% |  |
| CC1(C)C(=O)N(c2ccc(C#N)c(F)c2)C(=S)N1CCCOc1ccc(-c2ccncc2)c(F)c1 [EM-9011] | 66% | 85% | 63% |  |
| CC1(C)C(=O)N(c2ccc(C#N)c(C(F)(F)F)c2)C(=S)N1CCCOc1ccc(-c2ccncc2)cc1 [EM-8841] | 65% | 85% | 57% |  |
| Cc1c(N2C(=O)N(CCCOc3ccc(-c4ccncc4F)cc3)C(C)(C)C2=O)ccc(C#N)c1Cl [EM-9311] |  |  |  | CX + DHT Antagonistic activity % Inhibition Bulbo (0.1 mg/rat po): −41 ± 12 (n = 2, 0.1 mg/rat) %; CX + DHT Antagonistic activity % Inhibition SV (0.1 mg/rat po): 40 ± 1 (n = 2, 0.1 mg/rat) %; CX + DHT Antagonistic activity % Inhibition Prostate (0.1 mg/rat/po): 26 ± 13 (n = 2, 0.1 mg/rat) % |

| Compound | CX + DHT Antagonistic activity % Inhibition Bulbo (0.5 mg/rat/po) | CX + DHT Antagonistic activity % Inhibition SV (0.5 mg/rat/po) | CX + DHT Antagonistic activity % Inhibition Prostate (0.5 mg/rat/po) | also measured |
| --- | --- | --- | --- | --- |
| Cc1c(N2C(=O)N(CCCOc3ccc(-c4ccncc4)c(F)c3)C(C)(C)C2=O)ccc(C#N)c1Cl [EM-9253] | −44% | 44% | 30% |  |
| Cc1c(N2C(=O)C(C)(C)N(CCCOc3ccc(-c4ccc(N(C)C)nc4)c(F)c3)C2=S)ccc(C#N)c1Cl [EM-8996] | −78% | −56% | 27% |  |
| Cc1cc(OCCCN2C(=O)N(c3ccc(C#N)c(Cl)c3)C(=O)C2(C)C)ccc1-c1cc[n+]([O-])cc1 [EM-9221] | 82% | 83% | 50% |  |
| CC1(C)C(=O)N(c2ccc(C#N)c(C(F)(F)F)c2)C(=O)N1Cc1ccc(-c2cc[n+]([O-])cc2)c(F)c1 [EM-9228] | 81% | 94% | 57% |  |
| Cc1c(N2C(=O)C(C)(C)N(CCCOc3ccc(-c4cc[n+]([O-])cc4)cc3)C2=S)ccc(C#N)c1Cl [EM-8913] | −138% | −59% | 29% |  |
| CC1(C)C(=O)N(c2ccc(C#N)c(C(F)(F)F)c2)C(=S)N1CCCOc1ccc(-c2ccncc2)cn1 [EM-9050] | 64% | 92% | 54% |  |
| Cc1ccc2cc(OCCCN3C(=O)N(c4ccc(C#N)c(C(F)(F)F)c4)C(=O)C3(C)C)ccc2[n+]1[O-] [EM-9093] |  |  |  | CX + DHT Antagonistic activity % Inhibition Bulbo (0.2 mg/rat po): 21 (0.2 mg/ rat) %; CX + DHT Antagonistic activity % Inhibition SV (0.2 mg/rat po): 47 (0.2 mg/ rat) %; CX + DHT Antagonistic activity % Inhibition Prostate (0.2 mg/rat po): 20 (0.2 mg/ rat) % |
| CC1(C)C(=O)N(c2ccc(C#N)c(Cl)c2)C(=S)N1CCCOc1ccc(-c2cc[n+]([O-])cc2)c(F)c1 [EM-9119] | 74% | 81% | 58% |  |
| CC1(C)C(=O)N(c2ccc(C#N)c(C(F)(F)F)c2)C(=S)N1CCCOc1ccc(-c2cc[n+]([O-])cc2)cc1.Cl [EM-9043] |  |  |  | CX + DHT Antagonistic activity % Inhibition Bulbo (0.1 mg/rat po): 52 ± 8 (n = 2) 0.1 mg/rat %; CX + DHT Antagonistic activity % Inhibition SV (0.1 mg/rat po): 61 ± 3 (n = 2) 0.1 mg/rat %; CX + DHT Antagonistic activity % Inhibition Prostate (0.1 mg/rat/po): 43 ± 8 (n = 2) 0.1 mg/rat % |
| Cc1c(N2C(=O)N(CCCOc3ccc4cccnc4c3)C(C)(C)C2=O)ccc(C#N)c1Cl [EM-8786] | −265% | 35% | 51% |  |
| CC1(C)C(=O)N(c2ccc(C#N)c(Cl)c2)C(=O)N1CCCOc1ccc(-c2cc[n+]([O-])cc2)c(F)c1 [EM-9117] | 91 ± 11 (n = 2) % | 90 ± 2 (n = 2) % | 61 ± 9 (n = 2) % |  |
| CC1(C)C(=O)N(c2ccc(C#N)c(Cl)c2)C(=S)N1CCCOc1ccc(-c2ccncc2)cc1Cl [EM-9052] | 70% | 84% | 59 ± 0% and 59% | CX + DHT Antagonistic activity % Inhibition Prostate (0.1 mg/rat/po): 21 ± 5% |
| CC1(C)C(=O)N(c2ccc(C#N)c(F)c2)C(=S)N1CCCOc1ccc(-c2ccncc2)cc1 [EM-9025] | 61% | 76% | 51% |  |
| Cc1c(N2C(=O)C(C)(C)N(CCCOc3ccc(-c4ccncc4Cl)cc3)C2=S)ccc(C#N)c1Cl [EM-8977] | −121% | −15% | −11% |  |
| CC1(C)NC(=O)N(c2ccc(C#N)c(Cl)c2)C1=O [EM-9260] | 84% | 96% | 71% |  |
| CC1(C)C(=O)N(c2ccc(C#N)c(Cl)c2)C(=O)N1CCCOc1ccc(-c2ccncc2)cc1F [EM-9198] | 71% | 90% | 52% |  |
